Test results as given in PMC3415323 (International Journal of Nanomedicine, 2012).

Legend:
[1] = rat, in vivo, 5 mg/kg

**Q.** What does the source list for Hydroxysafflor yellow A [HSYA]?
**A.** Papp (Caco-2 cell monolayers; 0.4 mg/mL HSYA, apical to basolateral): 3.52 ± 1.41 × 10^−6 cm/s; membrane permeability of HSYA (Caco-2 cell monolayers; HSYA uptake and transport experiments): very low; Frel (relative bioavailability) [1]: 100%; AUC0–12 ([1]; po): 156.81 ± 9.53 µg·min/mL; Cmax ([1]; po): 640 ± 140 ng/mL; MRT ([1]; po): 6.0562 ± 0.3438 h; Tmax ([1]; po): 2.17 ± 0.6237 h
